From ChEMBL document CHEMBL4406869, “Benzo[b]thiophene-thiazoles as potent anti-Toxoplasma gondii agents: Design, synthesis, tyrosinase/tyrosine hydroxylase inhibitors, molecular docking study, and antioxidant activity” (Eur J Med Chem, 2019)

B1: Tyrosinase (Agaricus bisporus), O42713 (protein)
chain: MSLIATVGPTGGVKNRLNIVDFVKNEKFFTLYVRSLELLQAKEQHDYSSFFQLAGIHGLPFTEWAKERPSMNLYKAGYCTHGQVLFPTWHRTYLSVLEQILQGAAIEVAKKFTSNQTDWVQAAQDLRQPYWDWGFELMPPDEVIKNEEVNITNYDGKKISVKNPILRYHFHPIDPSFKPYGDFATWRTTVRNPDRNRREDIPGLIKKMRLEEGQIREKTYNMLKFNDAWERFSNHGISDDQHANSLESVHDDIHVMVGYGKIEGHMDHPFFAAFDPIFWLHHTNVDRLLSLWKAINPDVWVTSGRNRDGTMGIAPNAQINSETPLEPFYQSGDKVWTSASLADTARLGYSYPDFDKLVGGTKELIRDAIDDLIDERYGSKPSSGARNTAFDLLADFKGITKEHKEDLKMYDWTIHVAFKKFELKESFSLLFYFASDGGDYDQENCFVGSINAFRGTAPETCANCQDNENLIQEGFIHLNHYLARDLESFEPQDVHKFLKEKGLSYKLYSRGDKPLTSLSVKIEGRPLHLPPGEHRPKYDHTQARVVFDDVAVHVIN

What was measured:
[1] = Potency index, ratio of butylated hydroxytoluene IC50 to test compound IC50 for antioxidant activity assessed as DPPH radical scavenging activity; type: functional
[2] = substrate: Brc1ccc(-c2csc(N/N=C/c3cc4ccccc4s3)n2)cc1; settings: Agaricus bisporus; 0.2 mM
[3] = substrate: Clc1ccc(-c2csc(N/N=C/c3cc4ccccc4s3)n2)cc1; settings: Agaricus bisporus; 0.2 mM
[4] = substrate: Cc1ccc(-c2csc(N/N=C/c3cc4ccccc4s3)n2)cc1; settings: Agaricus bisporus; 0.2 mM
[5] = substrate: Fc1ccc(-c2csc(N/N=C/c3cc4ccccc4s3)n2)cc1; settings: Agaricus bisporus; 0.2 mM
[6] = substrate: Brc1ccc(-c2csc(N/N=C/c3cc4ccccc4s3)n2)cc1; settings: Agaricus bisporus; 0.2 mM; remark: listed apart in the source
[7] = substrate: Clc1ccc(-c2csc(N/N=C/c3cc4ccccc4s3)n2)cc1; settings: Agaricus bisporus; 0.2 mM; remark: listed apart in the source
[8] = substrate: Cc1ccc(-c2csc(N/N=C/c3cc4ccccc4s3)n2)cc1; settings: Agaricus bisporus; 0.2 mM; remark: listed apart in the source
[9] = substrate: Fc1ccc(-c2csc(N/N=C/c3cc4ccccc4s3)n2)cc1; settings: Agaricus bisporus; 0.2 mM; remark: listed apart in the source
[10] = substrate: Ic1ccc(-c2csc(N/N=C/c3cc4ccccc4s3)n2)cc1; settings: Agaricus bisporus; 0.2 mM
[11] = substrate: C(=N/Nc1nc(C23CC4CC(CC(C4)C2)C3)cs1)\c1cc2ccccc2s1; settings: Agaricus bisporus; 0.2 mM

Molecule	Ratio IC50 [1]	Km [2] [µM]	Km [3] [µM]	Km [4] [µM]	Km [5] [µM]	Vmax [6] [abs/min]	Vmax [7] [abs/min]	Vmax [8] [abs/min]	Vmax [9] [abs/min]	Vmax [10] [abs/min]	Vmax [11] [abs/min]
C(=N\Nc1nc(C23CC4CC(CC(C4)C2)C3)cs1)/c1cc2ccccc2s1	10										
B1		1050	619	703	2450	0.154	0.1	0.12	0.302	-0.0764	-0.0502
